{
  "source": "patent US4923892A",
  "about": "“Tricyclic aromatic compounds” (Burroughs Wellcome Co., priority 1985, dated 1990)",
  "tested_on": "histamine",
  "assay": "In vivo antihistaminic activity: protection of guinea pigs against histamine aerosol challenge",
  "parameters": "species or system Guinea pigs (Hartley, male)",
  "conditions": "Cavia porcellus, po, 4 hr post dosing, 0.25% histamine aerosol, at least 40 animals",
  "data": [
    {"smiles": "CN(C)CCC=C1c2ccccc2COc2ccccc21", "note": "[Doxepin, 11-(3-(dimethylamino)propylidene)-6,11-dihydrodibenz[b,e]oxepin, reference compound]", "values": [
      {"measurement": "ED50", "value": "> 9", "unit": "mg/kg"}
    ]}
  ]
}
